Results taken from paper PMC12143348, “Rapid and reversible fluorescent probe enables repeated snapshot imaging of AMPA receptors during synaptic plasticity” (Science Advances, 2025).

Chains of the proteins cited; added tags and fusions are not shown. A line that says so, or that is headed by a name, gives the form on record, which may keep a tag or linker. Residues count along the entry.
UniProt P23819, with tags, fused parts or gaps isoform 4 DEL765-802 limits assumed: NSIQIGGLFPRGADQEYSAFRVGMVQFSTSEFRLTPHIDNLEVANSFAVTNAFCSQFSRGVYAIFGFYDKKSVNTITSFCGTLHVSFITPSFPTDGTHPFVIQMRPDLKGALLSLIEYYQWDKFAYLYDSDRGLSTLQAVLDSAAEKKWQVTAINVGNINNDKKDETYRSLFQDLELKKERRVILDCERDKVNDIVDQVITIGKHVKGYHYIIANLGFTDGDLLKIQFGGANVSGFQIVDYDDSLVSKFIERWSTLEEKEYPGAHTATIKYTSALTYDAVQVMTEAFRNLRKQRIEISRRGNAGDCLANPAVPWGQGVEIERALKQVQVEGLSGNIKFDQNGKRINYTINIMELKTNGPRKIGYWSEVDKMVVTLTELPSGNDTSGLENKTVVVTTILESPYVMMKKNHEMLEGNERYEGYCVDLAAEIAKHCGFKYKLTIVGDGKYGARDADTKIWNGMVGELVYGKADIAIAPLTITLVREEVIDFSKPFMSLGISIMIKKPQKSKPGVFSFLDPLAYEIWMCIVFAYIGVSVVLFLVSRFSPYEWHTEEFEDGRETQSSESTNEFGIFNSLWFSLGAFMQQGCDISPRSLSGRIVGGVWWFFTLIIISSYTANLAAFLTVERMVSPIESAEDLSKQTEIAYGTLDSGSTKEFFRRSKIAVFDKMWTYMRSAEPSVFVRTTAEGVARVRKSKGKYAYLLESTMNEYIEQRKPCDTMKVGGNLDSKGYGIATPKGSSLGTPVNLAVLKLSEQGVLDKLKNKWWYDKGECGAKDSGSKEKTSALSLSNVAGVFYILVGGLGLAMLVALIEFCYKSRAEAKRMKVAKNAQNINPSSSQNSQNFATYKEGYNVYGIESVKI
UniProt P42260, 32-908 limits assumed: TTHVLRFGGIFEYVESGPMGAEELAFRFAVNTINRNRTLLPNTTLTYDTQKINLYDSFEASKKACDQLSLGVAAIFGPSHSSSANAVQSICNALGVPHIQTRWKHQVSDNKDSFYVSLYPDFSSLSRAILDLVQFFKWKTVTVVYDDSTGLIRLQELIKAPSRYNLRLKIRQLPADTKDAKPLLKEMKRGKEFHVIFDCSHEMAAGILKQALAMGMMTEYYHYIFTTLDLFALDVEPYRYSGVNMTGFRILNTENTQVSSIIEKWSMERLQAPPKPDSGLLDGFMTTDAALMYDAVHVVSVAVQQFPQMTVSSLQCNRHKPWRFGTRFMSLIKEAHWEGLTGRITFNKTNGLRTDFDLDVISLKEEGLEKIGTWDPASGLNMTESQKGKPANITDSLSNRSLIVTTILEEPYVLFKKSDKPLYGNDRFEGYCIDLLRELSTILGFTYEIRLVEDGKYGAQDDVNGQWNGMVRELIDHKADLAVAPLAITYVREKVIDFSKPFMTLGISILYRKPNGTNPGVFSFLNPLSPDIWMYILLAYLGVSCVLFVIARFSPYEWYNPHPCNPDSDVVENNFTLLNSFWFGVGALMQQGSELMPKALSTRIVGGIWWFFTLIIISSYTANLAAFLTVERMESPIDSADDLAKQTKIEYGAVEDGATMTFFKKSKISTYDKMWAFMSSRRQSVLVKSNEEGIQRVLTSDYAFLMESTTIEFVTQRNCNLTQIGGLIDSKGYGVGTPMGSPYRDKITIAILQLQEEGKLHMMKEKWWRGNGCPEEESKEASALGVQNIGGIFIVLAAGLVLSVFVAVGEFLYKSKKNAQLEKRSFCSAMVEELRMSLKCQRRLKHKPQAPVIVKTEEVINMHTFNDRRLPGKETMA

Assays:
GluA2flip(Q) [1] = biological target: T1, GluA2flip(Q) (Mus musculus, UniProt P23819, DEL765-802); test: Concentration-dependent binding of fluorophore-ligand conjugates, confocal live imaging of HEK293T cells expressing GluA2; details: for Kd: read-out: dissociation constant (Kd) / Affinity to GluA2, HEK293T cells expressing GluA2flip(Q), cell-surface fluorescence, mean ± SEM, n = 3
GluK2(Q) = GluK2(Q) (Rattus norvegicus, UniProt P42260); test: Fluorescence Ca2+ assay, inhibition of kainic acid-induced response in HEK293T cells transfected with GluK2(Q); details: 100 µM kainic acid-induced Ca2+ response
GluA2flip(Q) [2] = biological target: T1, GluA2flip(Q); test: Competitive inhibition of PFQX1(AF488) binding by PFQX-amine in HEK293T cells expressing GluA2; details: [PFQX1(AF488)] = 30 nM, HEK293T cells with GluA2

In the case of O=C(O)Cn1c(=O)c(=O)[nH]c2cc(C(F)(F)F)c(-n3ccc(CNC(=O)CCOCCOCCOCCOCCNC(=O)c4ccc(-c5c6ccc(=O)cc-6oc6cc(O)ccc56)c(C(=O)O)c4)c3)cc21, the Kd (GluA2flip(Q) [1]) is reported as 346 nM.

With NCc1ccn(-c2cc3c(cc2C(F)(F)F)[nH]c(=O)c(=O)n3CC(=O)O)c1 the “inhibitory effect on GluK2” value (GluK2(Q)) was “low”, the IC50 (GluA2flip(Q) [2]; read-out: IC50 for inhibition of PFQX1(AF488) binding, n = 3) was 862 nM and the Ki (GluA2flip(Q) [2]; read-out: Ki (Cheng-Prusoff equation), calculated from IC50) was 477 nM.

For O=C(O)Cn1c(=O)c(=O)[nH]c2cc(C(F)(F)F)c(-n3ccc(CNC(=O)c4ccc(-c5c6ccc(=O)cc-6oc6cc(O)ccc56)c(C(=O)O)c4)c3)cc21, the “cell-surface fluorescence / affinity to AMPARs (in words)” value (GluA2flip(Q) [1]; HEK293T cells expressing GluA2) was “high affinity” and the Kd (GluA2flip(Q) [1]) was 4.3 nM.
